Holding throughout (format): cell-based
The target of test [1] is T1, wild-type ER (wtER) (Homo sapiens, UniProt P03372).
T1 construct: expressed in transfected cells; host or cells: SKBR3
The experiment in a line: SKBR3 (wild type ER) ER-driven transcription, light units. The settings on record: IC50, SKBR3 (WT ER), SKBR3 cells with wild type estrogen receptor.

The chains behind the UniProt entries cited, without tags or fusion partners.
UniProt P03372, whole entry: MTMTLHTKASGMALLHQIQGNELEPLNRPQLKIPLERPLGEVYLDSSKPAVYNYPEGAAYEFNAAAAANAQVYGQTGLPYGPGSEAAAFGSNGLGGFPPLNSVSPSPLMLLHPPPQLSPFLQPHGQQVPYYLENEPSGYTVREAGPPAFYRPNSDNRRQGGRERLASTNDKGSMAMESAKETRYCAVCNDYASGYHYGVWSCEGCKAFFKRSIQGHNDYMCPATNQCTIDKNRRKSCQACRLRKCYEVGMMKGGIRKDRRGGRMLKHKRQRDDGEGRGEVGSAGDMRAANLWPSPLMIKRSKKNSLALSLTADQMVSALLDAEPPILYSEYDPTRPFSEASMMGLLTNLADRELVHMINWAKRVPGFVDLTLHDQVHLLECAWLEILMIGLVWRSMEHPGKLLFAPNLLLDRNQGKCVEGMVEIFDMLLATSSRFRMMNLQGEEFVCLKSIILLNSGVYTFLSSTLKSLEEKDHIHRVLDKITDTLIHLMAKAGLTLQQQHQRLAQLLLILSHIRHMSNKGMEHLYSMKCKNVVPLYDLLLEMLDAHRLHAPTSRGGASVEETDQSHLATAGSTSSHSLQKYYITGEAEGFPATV
UniProt P03372, whole entry D538G: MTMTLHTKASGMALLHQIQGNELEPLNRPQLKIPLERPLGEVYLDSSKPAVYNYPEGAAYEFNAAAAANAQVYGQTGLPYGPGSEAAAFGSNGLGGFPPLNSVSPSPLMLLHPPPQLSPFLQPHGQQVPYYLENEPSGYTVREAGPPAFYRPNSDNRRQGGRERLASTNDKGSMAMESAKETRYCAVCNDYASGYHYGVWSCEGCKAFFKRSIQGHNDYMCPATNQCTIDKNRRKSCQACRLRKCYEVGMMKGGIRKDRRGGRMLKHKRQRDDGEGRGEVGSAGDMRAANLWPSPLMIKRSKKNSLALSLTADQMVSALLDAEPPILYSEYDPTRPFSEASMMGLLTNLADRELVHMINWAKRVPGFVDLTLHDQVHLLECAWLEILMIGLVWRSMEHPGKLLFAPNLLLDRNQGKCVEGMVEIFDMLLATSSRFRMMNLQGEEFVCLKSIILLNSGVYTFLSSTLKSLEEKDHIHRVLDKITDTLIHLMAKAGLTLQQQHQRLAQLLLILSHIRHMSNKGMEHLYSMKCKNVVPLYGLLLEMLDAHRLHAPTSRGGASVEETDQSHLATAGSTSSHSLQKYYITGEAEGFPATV
UniProt P03372, whole entry Y537S: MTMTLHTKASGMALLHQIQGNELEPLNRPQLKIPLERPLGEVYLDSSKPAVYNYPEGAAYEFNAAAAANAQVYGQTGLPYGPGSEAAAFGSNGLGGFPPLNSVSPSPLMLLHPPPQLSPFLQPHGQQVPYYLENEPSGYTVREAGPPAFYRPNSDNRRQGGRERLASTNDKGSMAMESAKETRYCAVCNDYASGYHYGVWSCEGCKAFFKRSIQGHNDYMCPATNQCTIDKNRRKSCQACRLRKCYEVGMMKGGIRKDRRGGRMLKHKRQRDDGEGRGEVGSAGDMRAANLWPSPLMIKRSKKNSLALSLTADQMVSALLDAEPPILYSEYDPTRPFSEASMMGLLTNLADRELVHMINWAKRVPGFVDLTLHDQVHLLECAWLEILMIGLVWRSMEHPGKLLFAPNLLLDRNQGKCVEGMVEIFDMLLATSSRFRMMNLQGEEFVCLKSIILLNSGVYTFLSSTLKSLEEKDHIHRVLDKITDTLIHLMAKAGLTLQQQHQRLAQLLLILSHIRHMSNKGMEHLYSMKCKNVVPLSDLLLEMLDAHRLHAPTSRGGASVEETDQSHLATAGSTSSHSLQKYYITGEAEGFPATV

For test [2], the target named is T2, mutant ER (D538G) (Homo sapiens, UniProt P03372, D538G).
T2 construct: expressed in transfected cells; host or cells: SKBR3
Nature of the test: SKBR3 (D538G ER) ER-driven transcription, light units.

For test [3], the target named is T3, mutant ER (Y537S) (Homo sapiens, UniProt P03372, Y537S).
T3 construct: expressed in transfected cells; host or cells: SKBR3
Nature of the test: SKBR3 (Y537S ER) ER-driven transcription, light units.

Turning to `C[C@@H]1Cc2c([nH]c3ccccc23)[C@@H](c2c(F)cc(/C=C/C(=O)O)cc2F)N1CC(C)(C)F` [AZD9496], the IC50 amounted to 0.45 nM in test [1]; 1.2 nM in test [2]; 2.57 nM in test [3] (IC50, SKBR3 (Y537S ER), SKBR3 cells with Y537S mutated estrogen receptor, light units); 2.6 nM in test [3] (IC50 ER^Y537S (nM), Table 10, values collected in Example 12).

The record behind these values is patent publication US11364222B2, “Combination therapy for treatment of cancer” (G1 Therapeutics, Inc., priority 2017, dated 2022).
